Laboratory results as given in patent US10278957B2, “Opioid agonist peptides and uses thereof” (Protagonist Therapeutics, Inc., priority 2017, dated 2019).
pEC50: −log10 of the molar value.

Sequences of proteins named here, by UniProt entry; tags and fusion partners are left off.
UniProt P35372, whole entry: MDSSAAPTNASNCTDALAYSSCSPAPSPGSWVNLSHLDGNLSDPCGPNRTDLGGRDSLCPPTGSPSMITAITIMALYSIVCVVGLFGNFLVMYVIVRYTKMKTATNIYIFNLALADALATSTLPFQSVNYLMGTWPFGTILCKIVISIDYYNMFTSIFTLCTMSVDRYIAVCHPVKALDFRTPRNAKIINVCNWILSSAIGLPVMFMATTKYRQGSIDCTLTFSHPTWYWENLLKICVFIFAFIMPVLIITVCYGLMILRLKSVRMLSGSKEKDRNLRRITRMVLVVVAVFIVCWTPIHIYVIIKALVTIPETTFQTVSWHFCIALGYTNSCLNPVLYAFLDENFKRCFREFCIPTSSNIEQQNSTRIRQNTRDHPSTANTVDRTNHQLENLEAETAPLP

Legend:
[1] = molecular target: T1, μ-opioid receptor (MOR) (Homo sapiens, UniProt P35372); assay: MOR agonist cAMP assay (HitHunter cAMP, forskolin-stimulated); assay type: cell-based
T1 construct: host or cells: cAMP Hunter CHO-K1 OPRM1 Gαi cell line
Experimental: (§1) The HitHunter® cAMP chemiluminescent assay kit (DiscoveRx, Cat# 90-0075 SM25) was used to detect cAMP production in cAMP Hunter™ Gαi cell lines over expressing either Human-ORPM1 (Discoverx, Catalog# 95-0107C2) or Human-ORPD1 (DiscoveRx, Catalog# 95-0108C2). Opioid agonist binding to the Gαi receptors inhibits the intracellular cAMP accumulation induced by forskolin, which activates adenylate cyclase and increases intracellular levels of cAMP.
(§2) Cells were cultured in media consisting of Ham's F-12 Nutrient Mix (Life Technologies, Catalog#31765035), 10% FBS (Life Technologies, Catalog# 16140-071), 4 mM GlutaMAX (Life Technologies, Catalog#35050-061), […] (Life Technologies), 100 ug/ml of Penn-Strep (Life Technologies) and 0.5 mg/ml Geneticin (Life Technologies, Catalog# 10131-027). The cultures were maintained at 37° C. under 5% CO2.
(§3) In preparation for cAMP assay, the cells were seeded at a density of 300,000 cells/ml in 100 ul of media/well in 96-well microplate. Wells that were designated for cAMP standards were left empty.
(§4) Opioid agonist serial dilutions were prepared in separate dilution plate (11-point series of 3× (3-fold) dilution) in Cell Assay buffer, including 3× forskolin for Gαi target. For Hunter CHO-K1 OPRM1 or CHO-K1 OPRD1 Gαi Cell Lines, the final forskolin concentration was 20 uM.
(§5) 15 ul of each 3× opioid agonist serial dilution was added in the presence of forskolin in duplicate to the designated wells. The final concentration of each dilution was at 3× of the final screening concentration. […]
(§6) Cellular cAMP concentrations were measured using the HitHunter cAMP Assay kit following the manufacturer's protocol. […] The amount of signal is directly proportional to the amount of cAMP in cells and can be quantified using cAMP standards. The assay plates were read using a PerkinElmer Envision instrument to detect the chemiluminescence signal in each well (luminescence reader at 0.1 to 1 second/well). Data analysis was performed using Graphpad Prism 7.EC50 was calculated by nonlinear regression, using the four-parameter hill equation.

[2] = molecular target: T2, δ-opioid receptor (DOR) (Homo sapiens, UniProt P41143); assay: DOR agonist cAMP assay (HitHunter cAMP, forskolin-stimulated); assay type: cell-based
T2 construct: host or cells: cAMP Hunter CHO-K1 OPRD1 Gαi cell line
Experimental: as §1, §2, §3, §4, §5, §6

Compound	pEC50 [1]	pEC50 [2]
Cc1cc(O)cc(C)c1C[C@H](N)C(=O)N[C@H](CCCNC(=N)N)C(=O)N[C@@H](Cc1ccccc1)C(=O)N[C@H](CCCCN)C(N)=O [compound 2]	> 9.00	< 6.70
Cc1cc(O)cc(C)c1C[C@H](N)C(=O)N[C@H](CCCNC(=N)N)C(=O)N[C@H](Cc1ccccc1)C(=O)N[C@@H](CCCCN)C(=O)O [compound 1]	7.30 to 8.00	< 6.70
Cc1cc(O)cc(C)c1C[C@H](N)C(=O)N[C@H](CCCNC(=N)N)C(=O)N[C@@H](Cc1ccccc1)C(=O)N[C@@H](CCCCN)C(N)=O [compound 7]	> 9.00	7.30 to 8.00
